Assay results: patent US20230390363A1, “Compounds, Compositions and Methods of Use to Treat Spinal Fusions” (PURDUE RESEARCH FOUNDATION, priority 2020, published 2023)

Tested on: posterolateral spinal fusion of L4-L5
Experiment: Posterolateral spinal fusion of L4-L5 in rats: micro-CT and manual palpitation after treatment
Format: in vivo, rat
Procedure: FIG. 6, panels A-C show three-dimensional reconstructions of micro-CT scans of a posterolateral spinal fusion of L4-L5 in a rat treated with a plain collagen matrix and a compound of SEQ ID NO: 2 for eight weeks. In some embodiments, SEQ ID NO: 2 was dosed (e.g., in rodents) at 33 nmol/kg twice a week. […] FIG. 7, panels A-C show the three-dimensional reconstructions of micro-CT scans of a posterolateral spinal fusion of L4-L5 in a rat treated with a plain collagen matrix soaked with rhBMP-2 (10 μg) for eight weeks. In some embodiments, the collagen matrix was applied during surgery. […] In some embodiments, phosphate-buffered saline was dosed at a 1× concentration twice a week in the same volume as SEQ ID NO: 2. In some embodiments, manual palpitation confirmed no fusion in the phosphate-buffered saline-treated rats. […] Scores were assigned 0-5 on osteointegration, density, and bridging of both bilateral spinal fusions in microCT scans of the rats as determined by an individual who was blinded to the treatment and reviewed random samples. The total score is the sum of all five scores combined. […] The density of the scan was assigned based on a standard curve generated by a phantom hydroxyapatite standard set. A bilateral posterolateral lumbar spinal fusion was performed under aseptic conditions using isoflurane as an anesthetic. The skin surrounding the L2-L6 region on the back was shaved and disinfected using a Betadine solution followed by an alcohol pad. A 3-cm incision extending from the L3 to L6 vertebrae was made in the skin in this prepared area. The muscle on the vertebral body between the spinous process and the transverses process was bluntly dissected away from the vertebral body to expose the transverses processes. Using a low-speed burr, the L4 and L5 transverse processes cortical bone was removed in addition to the facia joint between the two vertebrae. The burr removed the surface layer of the bone. This process is known as decortication and was done to allow for direct regeneration of bone tissue. Following decortication, a drug-soaked collagen sponge was placed on each side of the vertebrae. A 5×7.5-mm collagen sponge was soaked to saturation in the drugs for 10 minutes. The collagen sponge (RCM6 membranes from ACE surgical supplies) served as a scaffold to aid in the fusion of the vertebrae. Mineralized collagen scaffolds (supplied by Houston Methodist, Houston, TX) and collagen scaffolds wrapped around anorganic bone granules (InterOss bone granules; SigmaGraft Inc. Biomaterials, Fullerton, CA) were also separately used. The inter-muscle was closed with resorbable sutures. The exterior wound was then sutured closed using a nylon suture. Subcutaneous buprenorphine (0.05-0.1 mg/kg) was then administered directly after the operation and was repeated every 12 hours for the next 3 days post-surgery. Fracture healing was assessed using micro-CT (Scanco Medical Ag or PerkinElmer). The anesthetized animal was scanned for two minutes with the PerkinElmer Quantum FX micro-CT at high resolution with a voxel size of 10 μM at 90 kV and 88 uA and an Al 0.5 mm+Cu 0.06 mm filter. The scanning detector rate was 117 fps. The images were analyzed in ImageJ using the BoneJ package. Morphometric parameters were quantified in an ROI that included just the fracture callus. Trabecular thickness (Tb.Th.), trabecular spacing (Tb. Sp.), total volume (TV), and volume of calcified callus (BV) were calculated. Statistical analysis was performed using a one-way analysis of variance (ANOVA) and a Dunnett's post-hoc analysis with significance reported at the P value of 0.05. All animal experiments were performed in accordance with protocols approved by Purdue University's Institutional Animal Care and Use Committee (IACUC). Rats were scanned in AMI after being anesthetized with isoflurane. […]

For “rhBMP-2: bone morphogenetic protein-2; clinically approved drug, current standard of care, positive control (10 μg)”, the “change of bone graft granules on micro-CT” value (bone graft matrix, eight weeks) was “caused some of the granules to fuse”, the “spinal fusion (manual palpitation)” value (bone graft matrix, eight weeks, SEQ ID NO: 2 33 nmol/kg twice a week, rhBMP-2 10 μg) was “no fusion” and the “BMD of the bone bridges formed during the fusion” value (micro-CT, FIG. 17) was “did not generate enough mineralized tissue to be quantifiable”. The “spinal fusion (micro-CT)” value (mineralized collagen scaffold, eight weeks of treatment) was “none of the treatments had fused”, the “ossification on micro-CT” value (plain collagen matrix soaked with rhBMP-2 (10 μg), eight weeks) was “did ossify, but not in as controlled of a manner as those treated with a compound of SEQ ID NO: 2” and the “spinal fusion (micro-CT, manual palpitation)” value (plain collagen matrix, eight weeks, SEQ ID NO: 2 33 nmol/kg twice a week, rhBMP-2 10 μg soaked in matrix) was “no fusion”.
